# Binding of CDR-mutated scFvs to a peptide of the spike HR2 region

The measurements come from Engelhart et al. 2022 (doi:10.1038/s41597-022-01779-4) through the FLAb antibody collection.

Target: peptide PDVDLGDISGINAS, taken from heptad repeat 2 (HR2) of SARS-CoV-2 spike.

Each scFv is VL, three GGGGS repeats, VH, as in the parent Ab-91, and differs from it in the CDRs of the heavy chain only.
VL: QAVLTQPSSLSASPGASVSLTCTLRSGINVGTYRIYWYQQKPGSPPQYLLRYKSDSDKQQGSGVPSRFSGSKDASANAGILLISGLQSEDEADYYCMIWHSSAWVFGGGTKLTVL
VH: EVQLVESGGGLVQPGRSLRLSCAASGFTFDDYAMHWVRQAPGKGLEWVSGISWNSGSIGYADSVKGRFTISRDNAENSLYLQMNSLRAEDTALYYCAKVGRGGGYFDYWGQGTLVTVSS

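Phage display of a naive human antibody library on the peptide gave the parent. Variants in AAYL51 differ from the parent at up to three CDR positions; double and triple changes were sampled at random. AlphaSeq pools MATa yeast showing the antibodies with MATalpha yeast showing the peptide. Pairs that bind mate more often; barcode pairs of the diploids are counted by sequencing. Read counts were normalised to the haploid input and turned into Kd by a linear fit to BCL2-family pairs of known affinity, for each replicate. There are three technical replicates.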

The whole VH of each variant is written out. Values are log10 of the apparent Kd in nM; lower means stronger binding. An entry "n.d." has no value in the source: the pair was not observed among the diploids in that replicate. This suggests poor binding but is not conclusive. As a blank, each scFv also met three strains without target: over library AAYL51, 21% of these pairings were detected, typically at 4.54 and seldom below 3.26. The control count says in how many pairings with the empty strains this scFv gave a signal, with their mean in brackets. Parent in this assay: reference entry 1.86, copy in this library 0.88.

{"VH": "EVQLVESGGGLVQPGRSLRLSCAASGFTFDDYAMHWVRQAPGKGLEWVSGISWNSGDNGYADSVKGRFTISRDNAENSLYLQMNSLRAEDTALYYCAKVWRGGGYFDYWGQGTLVTVSS", "replicates, log10 nM": "0.94 / 1.57 / 0.54", "control signals": "0 of 9"}
{"VH": "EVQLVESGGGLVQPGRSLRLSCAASGFTFDDYNMHWVRQAPGKGLEWVSGISWNSGSIGYADSVKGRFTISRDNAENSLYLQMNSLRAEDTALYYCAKVARSGGYFDYWGQGTLVTVSS", "replicates, log10 nM": "3.62 / n.d. / n.d.", "control signals": "2 of 9 (4.53)"}
{"VH": "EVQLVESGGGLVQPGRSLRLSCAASGFTFDDSAMHWVRQAPGKGLEWVSGISWNSGSIFYADSVKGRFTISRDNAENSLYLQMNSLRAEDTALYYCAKYGRGGGYFDYWGQGTLVTVSS", "replicates, log10 nM": "n.d. / 6.00 / 4.17", "control signals": "5 of 9 (4.54)"}
{"VH": "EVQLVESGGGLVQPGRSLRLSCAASGHTFPDYAMHWVRQAPGKGLEWVSGISWNSYSIGYADSVKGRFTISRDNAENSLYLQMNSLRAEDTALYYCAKVGRGGGYFDYWGQGTLVTVSS", "replicates, log10 nM": "4.75 / 5.94 / 5.90", "control signals": "9 of 9 (5.17)"}
{"VH": "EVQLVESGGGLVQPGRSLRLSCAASGFTFDDYAMHWVRQAPGKGLEWVSGISWNSGSIGYADPPKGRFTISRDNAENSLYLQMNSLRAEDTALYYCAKVGRGHGYFDYWGQGTLVTVSS", "replicates, log10 nM": "5.83 / n.d. / n.d.", "control signals": "4 of 9 (4.86)"}
{"VH": "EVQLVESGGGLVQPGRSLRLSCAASGFTFDDHAMHWVRQAPGKGLEWVSGISWNSGSIGYADSVKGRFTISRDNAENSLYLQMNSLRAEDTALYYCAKVGRGGGYVDYWGQGTLVTVSS", "replicates, log10 nM": "5.29 / n.d. / n.d.", "control signals": "2 of 9 (4.54)"}
{"VH": "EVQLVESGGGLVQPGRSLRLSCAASGFTFDDYAMHWVRQAPGKGLEWVSGISWNSGSIGYAWSVCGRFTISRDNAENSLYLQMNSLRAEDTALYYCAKVHRGGGYFDYWGQGTLVTVSS", "replicates, log10 nM": "n.d. / n.d. / n.d.", "control signals": "1 of 9 (3.25)"}
{"VH": "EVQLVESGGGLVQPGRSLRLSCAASGFCFDDYAMHWVRQAPGKGLEWVSGESWNSYSIGYADSVKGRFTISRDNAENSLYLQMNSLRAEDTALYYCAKVGRGGGYFDYWGQGTLVTVSS", "replicates, log10 nM": "4.98 / n.d. / n.d.", "control signals": "3 of 9 (4.76)"}
{"VH": "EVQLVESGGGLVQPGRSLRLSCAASGFTFDDYAMLWVRQAPGKGLEWVSGISWNSGSIGCADSIKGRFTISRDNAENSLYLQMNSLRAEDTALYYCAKVGRGGGYFDYWGQGTLVTVSS", "replicates, log10 nM": "n.d. / n.d. / n.d.", "control signals": "0 of 9"}
{"VH": "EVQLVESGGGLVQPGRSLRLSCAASGFTFDDYAMHWVRQAPGKGLEWVSGISWNSWSIDYADSVKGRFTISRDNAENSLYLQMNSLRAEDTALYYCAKVGRGGGYEDYWGQGTLVTVSS", "replicates, log10 nM": "3.28 / n.d. / n.d.", "control signals": "0 of 9"}
{"VH": "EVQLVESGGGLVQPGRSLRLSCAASIFTFDDYAMHWVRQAPGKGLEWVSWISWNCGSIGYADSVKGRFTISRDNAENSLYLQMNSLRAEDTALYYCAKVGRGGGYFDYWGQGTLVTVSS", "replicates, log10 nM": "n.d. / n.d. / n.d.", "control signals": "1 of 9 (4.75)"}
{"VH": "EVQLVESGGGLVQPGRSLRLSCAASGFTFDDYAMHWVRQAPGKGLEWVSGISWESGSIGYADSVKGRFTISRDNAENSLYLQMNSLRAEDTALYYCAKVDRGGGYFDWWGQGTLVTVSS", "replicates, log10 nM": "n.d. / n.d. / n.d.", "control signals": "0 of 9"}
{"VH": "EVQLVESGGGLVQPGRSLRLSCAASGFTFRDYAMHWVRQAPGKGLEWVSGISWNSMSIGAADSVKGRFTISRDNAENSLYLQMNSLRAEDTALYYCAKVGRGGGYFDYWGQGTLVTVSS", "replicates, log10 nM": "n.d. / n.d. / n.d.", "control signals": "0 of 9"}
{"VH": "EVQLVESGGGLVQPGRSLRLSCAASGFTFDDYAMHWVRQAPGKGLEWVSGISWNSGSMGYADSVNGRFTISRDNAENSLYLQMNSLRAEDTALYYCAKVGRAGGYFDYWGQGTLVTVSS", "replicates, log10 nM": "n.d. / n.d. / n.d.", "control signals": "1 of 9 (5.09)"}
{"VH": "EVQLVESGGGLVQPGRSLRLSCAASGFTFDDYAMHWVRQAPGKGLEWVSGISWNSGSIGYADSAKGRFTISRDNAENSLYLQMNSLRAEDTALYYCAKVGRGGGYILYWGQGTLVTVSS", "replicates, log10 nM": "1.68 / 1.70 / 1.16", "control signals": "4 of 9 (4.60)"}
{"VH": "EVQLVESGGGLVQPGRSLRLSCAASGFTFDDYAMHWVRQAPGKGLEWVSGISPNSGSIGYADSVKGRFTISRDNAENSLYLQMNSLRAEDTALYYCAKVGRVGGYFDYWGQGTLVTVSS", "replicates, log10 nM": "n.d. / n.d. / 4.30", "control signals": "0 of 9"}

2 of these entries, quoted again:

{"VH": "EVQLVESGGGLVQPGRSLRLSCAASGFTFDDYAMHWVRQAPGKGLEWVSGISWNSGSIGYADPPKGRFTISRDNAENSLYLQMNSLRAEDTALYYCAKVGRGHGYFDYWGQGTLVTVSS", "replicates, log10 nM": "5.83 / n.d. / n.d.", "control signals": "4 of 9 (4.86)"}
{"VH": "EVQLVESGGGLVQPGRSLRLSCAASGFTFDDYAMHWVRQAPGKGLEWVSGISWESGSIGYADSVKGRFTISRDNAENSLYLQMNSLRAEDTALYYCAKVDRGGGYFDWWGQGTLVTVSS", "replicates, log10 nM": "n.d. / n.d. / n.d.", "control signals": "0 of 9"}